Test results published in US20240270821A1, “GIP/GLP1/GCG TRI-RECEPTOR AGONISTS AND USES THEREOF” (priority 2023, published 2024).
pEC50: −log10 of the molar value.

The chains behind the UniProt entries cited, without tags or fusion partners. Residues count along the entry.
UniProt P43220, 24-463: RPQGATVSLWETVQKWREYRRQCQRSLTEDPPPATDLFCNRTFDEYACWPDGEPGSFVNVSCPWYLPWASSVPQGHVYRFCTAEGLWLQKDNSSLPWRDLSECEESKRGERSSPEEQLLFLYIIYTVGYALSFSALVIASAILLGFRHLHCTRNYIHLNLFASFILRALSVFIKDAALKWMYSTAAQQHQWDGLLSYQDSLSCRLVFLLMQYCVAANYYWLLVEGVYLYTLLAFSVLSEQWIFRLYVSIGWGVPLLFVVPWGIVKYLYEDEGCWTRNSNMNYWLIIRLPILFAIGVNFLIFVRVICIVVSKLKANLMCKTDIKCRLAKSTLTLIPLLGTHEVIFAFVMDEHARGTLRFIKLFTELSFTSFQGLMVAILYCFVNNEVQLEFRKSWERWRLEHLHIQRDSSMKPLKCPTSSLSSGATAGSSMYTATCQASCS
UniProt P47871, 26-477: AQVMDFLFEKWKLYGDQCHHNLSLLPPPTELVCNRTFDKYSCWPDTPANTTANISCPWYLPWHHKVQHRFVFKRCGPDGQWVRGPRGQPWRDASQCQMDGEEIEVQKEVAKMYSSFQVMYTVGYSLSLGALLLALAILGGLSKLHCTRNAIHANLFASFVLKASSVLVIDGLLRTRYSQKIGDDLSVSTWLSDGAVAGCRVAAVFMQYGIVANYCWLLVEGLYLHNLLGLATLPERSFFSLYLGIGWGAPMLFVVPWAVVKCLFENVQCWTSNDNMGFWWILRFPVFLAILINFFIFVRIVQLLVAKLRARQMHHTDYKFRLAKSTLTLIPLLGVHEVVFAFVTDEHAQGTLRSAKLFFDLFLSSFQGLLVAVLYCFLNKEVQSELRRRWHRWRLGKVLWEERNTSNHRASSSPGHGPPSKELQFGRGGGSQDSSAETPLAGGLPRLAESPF

What was measured:
[1] = molecular target: T1, hGIPR (Homo sapiens, UniProt P48546); test: Functional cAMP activity in the presence of 1% HSA; assay type: cell-based
T1 sequence (P48546 22-466): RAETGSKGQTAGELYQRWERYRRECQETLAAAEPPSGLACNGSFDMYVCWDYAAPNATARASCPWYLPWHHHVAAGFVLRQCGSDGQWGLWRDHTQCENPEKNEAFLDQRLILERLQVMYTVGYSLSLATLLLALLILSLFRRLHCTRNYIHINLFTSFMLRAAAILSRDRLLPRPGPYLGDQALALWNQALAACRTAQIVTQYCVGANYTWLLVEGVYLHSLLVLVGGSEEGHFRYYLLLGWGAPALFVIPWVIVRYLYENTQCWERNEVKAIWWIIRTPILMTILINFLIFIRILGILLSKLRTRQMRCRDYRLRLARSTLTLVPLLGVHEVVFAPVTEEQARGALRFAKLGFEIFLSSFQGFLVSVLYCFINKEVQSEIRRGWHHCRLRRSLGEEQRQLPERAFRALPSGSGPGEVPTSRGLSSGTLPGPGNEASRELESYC

[2] = molecular target: T2, hGLP-1R (Homo sapiens, UniProt P43220); test: Functional cAMP activity in the presence of 1% HSA; assay type: cell-based
[3] = molecular target: human GcgR (Homo sapiens, UniProt P47871); test: Functional cAMP activity in the presence of 1% HSA; assay type: cell-based
[4] = molecular target: T1, hGIPR; test: Functional cAMP activation in the presence of 0.1% casein (no HSA); assay type: cell-based
[5] = molecular target: T2, hGLP-1R; test: as above; assay type: cell-based
[6] = molecular target: hGcgR (Homo sapiens, UniProt P47871); test: as above; assay type: cell-based;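 further: intracellular cAMP rise after 30 min at 37 °C, read by HTRF against a cAMP standard curve, scaled from buffer only (0%) to maximal control ligand response (100%)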
[7] = Pharmacokinetics in male Sprague Dawley rats, single subcutaneous administration; settings: rat, in vivo, single SC 10 nmol/kg, mean n=3
[8] = molecular target: human GLP1-R (Homo sapiens, UniProt P43220); test: GLP1-R internalization assay in HEK293 cells; assay type: cell-based; settings: for Internalization % TOP: normalized to maximum concentration of GLP-1 (100%)
[9] = molecular target: T2, hGLP-1R; test: GLP-1R CHO cell β-arrestin recruitment assay; assay type: cell-based; parameters: host or cells: CHO-K1 (PathHunter, assay-ready frozen cells);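 further: luminescence read after 90 min peptide exposure at 37 °C and a further 60 min with detection reagent at room temperature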

Compound	pEC50 [1]	pEC50 [2]	pEC50 [3]	pEC50 [4]	pEC50 [5]	pEC50 [6]	CL/F [7]	half-life [7]	pEC50 [8]	Internalization % TOP [8]	pEC50 [9]	% Stimulation Max ([9]; normalized to GLP-1(7-36) as maximum control)
CC[C@H](C)[C@H](NC(=O)[C@H](Cc1ccccc1)NC(=O)[C@H](C)NC(=O)C(C)(C)NC(=O)[C@H](CCC(N)=O)NC(=O)[C@H](C)NC(=O)[C@H](CCCCNC(=O)COCCOCCNC(=O)CC[C@H](NC(=O)CCCCCCCCCCCCCCCCCCC(=O)O)C(=O)O)NC(=O)[C@H](CCCCN)NC(=O)[C@H](CC(=O)O)NC(=O)[C@H](CC(C)C)NC(=O)[C@](C)(CC(C)C)NC(=O)[C@H](CCCCN)NC(=O)[C@H](CO)NC(=O)[C@H](Cc1ccccc1)NC(=O)[C@H](CC(=O)O)NC(=O)[C@H](CO)NC(=O)[C@@H](NC(=O)[C@H](Cc1ccccc1)NC(=O)[C@@H](NC(=O)CNC(=O)[C@H](CCC(N)=O)NC(=O)C(C)(C)NC(=O)[C@@H](N)Cc1ccc(O)cc1)[C@@H](C)O)[C@@H](C)O)C(=O)N[C@@H](CCC(=O)O)C(=O)N[C@@H](Cc1ccc(O)cc1)C(=O)N[C@@H](CC(C)C)C(=O)N[C@@H](CC(C)C)C(=O)N[C@@H](C)C(=O)NCC(=O)NCC(=O)N1CCC[C@H]1C(=O)N[C@@H](CO)C(=O)N[C@@H](CO)C(=O)NCC(=O)N[C@@H](CCC(=O)O)C(=O)N1CCC[C@H]1C(=O)N1CCC[C@H]1C(=O)N1CCC[C@H]1C(=O)N[C@@H](CO)C(=O)N[C@@H](CCC(=O)O)C(=O)NCC(N)=O [Example 1]	7.13	6.28	5.77	9.68	8.85	8.43	0.21 mL/min/kg	16.1 h	7.35	69.1%	< 5.00	17.3%
CC[C@H](C)[C@H](NC(=O)[C@H](Cc1ccccc1)NC(=O)[C@H](C)NC(=O)C(C)(C)NC(=O)[C@H](CCC(N)=O)NC(=O)[C@H](C)NC(=O)[C@H](CCCCNC(=O)COCCOCCNC(=O)CC[C@H](NC(=O)CCCCCCCCCCCCCCCCCCC(=O)O)C(=O)O)NC(=O)[C@H](CCCCN)NC(=O)[C@H](CC(=O)O)NC(=O)[C@H](CC(C)C)NC(=O)[C@](C)(CC(C)C)NC(=O)[C@H](CCCNC(=N)N)NC(=O)[C@H](CO)NC(=O)[C@H](Cc1ccccc1)NC(=O)[C@H](CC(=O)O)NC(=O)[C@H](CO)NC(=O)[C@@H](NC(=O)[C@H](Cc1ccccc1)NC(=O)[C@@H](NC(=O)CNC(=O)[C@H](CCC(N)=O)NC(=O)C(C)(C)NC(=O)[C@@H](N)Cc1ccc(O)cc1)[C@@H](C)O)[C@@H](C)O)C(=O)N[C@@H](CCC(=O)O)C(=O)N[C@@H](Cc1ccc(O)cc1)C(=O)N[C@@H](CC(C)C)C(=O)N[C@@H](CC(C)C)C(=O)N[C@@H](CCC(=O)O)C(=O)NCC(=O)NCC(=O)N1CCC[C@H]1C(=O)N[C@@H](CO)C(=O)N[C@@H](CO)C(=O)NCC(=O)N[C@@H](C)C(=O)N1CCC[C@H]1C(=O)N1CCC[C@H]1C(=O)N1CCC[C@H]1C(=O)NCC(=O)NCC(=O)N[C@@H](CO)C(N)=O [Example 41]	7.01	6.15	5.64	9.59	8.66	8.07	–	–	7.08	62.3%	–	–
CC[C@H](C)[C@H](NC(=O)[C@H](Cc1ccccc1)NC(=O)[C@H](C)NC(=O)C(C)(C)NC(=O)[C@H](CCC(N)=O)NC(=O)[C@H](C)NC(=O)[C@H](CCCCNC(=O)COCCOCCNC(=O)CC[C@H](NC(=O)CCCCCCCCCCCCCCCCC(=O)O)C(=O)O)NC(=O)[C@H](CCCCN)NC(=O)[C@H](CC(=O)O)NC(=O)[C@H](CC(C)C)NC(=O)[C@](C)(CC(C)C)NC(=O)[C@H](CCCNC(=N)N)NC(=O)[C@H](CO)NC(=O)[C@H](Cc1ccccc1)NC(=O)[C@H](CC(=O)O)NC(=O)[C@H](CO)NC(=O)[C@@H](NC(=O)[C@H](Cc1ccccc1)NC(=O)[C@@H](NC(=O)CNC(=O)[C@H](CCC(N)=O)NC(=O)C(C)(C)NC(=O)[C@@H](N)Cc1ccc(O)cc1)[C@@H](C)O)[C@@H](C)O)C(=O)N[C@@H](CCC(=O)O)C(=O)N[C@@H](Cc1ccc(O)cc1)C(=O)N[C@@H](CC(C)C)C(=O)N[C@@H](CC(C)C)C(=O)N[C@@H](CCC(=O)O)C(=O)NCC(=O)NCC(=O)N[C@@H](CCC(=O)O)C(=O)N[C@@H](CO)C(=O)N[C@@H](CO)C(=O)NCC(=O)N[C@@H](C)C(=O)N1CCC[C@H]1C(=O)N1CCC[C@H]1C(=O)N1CCC[C@H]1C(=O)N[C@@H](CO)C(=O)NCC(=O)N[C@@H](CO)C(N)=O [Example 148]	7.13	6.06	5.88	9.45	8.55	8.41	–	–	7.02	37.4%	–	–
